# From paper PMC12387383, “Screening and Assessment of Hypoglycemic Active Peptide from Natural Edible Pigment Phycobiliprotein Based on Molecular Docking, Network Pharmacology, Enzyme Inhibition Assay Analyses, and Cell Experiments” (Marine Drugs, 2025)
# Tested on: HepG2 cells
# Test: Cytotoxicity in HepG2 cells via CCK-8 assay
# Format: cell-based
# Description: HepG2 cells were maintained in Dulbecco’s Modified Eagle Medium (DMEM) supplemented with 10% fetal bovine serum and 1% penicillin–streptomycin under controlled conditions at 37 °C in a humidified atmosphere containing 5% CO2 for 24 h. To induce insulin resistance, cells were treated with insulin at concentrations of 0, 10^−4, 10^−5, 10^−6, 10^−7, 10^−8, and 10^−9 μmol/L for varying exposure periods (12, 24, 36, or 48 h), followed by a post-treatment incubation phase of equal length under standard culture conditions, according to the protocol described by. Cell viability was assessed using the Cell Counting Kit 8 (CCK-8) assay. Glucose consumption was measured via a glucose detection kit. […] The IR-HepG2 cellular model was established as described in Section 3.6. The experimental design included the following groups: a normal (untreated) control group, an insulin resistance (IR)-induced model group, a positive control group treated with metformin, and peptide intervention groups treated with peptide solution. Cell viability was evaluated in all groups to determine appropriate peptide concentrations and incubation times based on the criteria of non-cytotoxicity and maximal glucose consumption.
substance,measurement,setting,value
insulin,HepG2 cell viability,"10^−4 mol/L insulin, CCK-8",38.45%
same,cytotoxicity (in words),"insulin 10^−5 to 10^−9 mol/L, HepG2, CCK-8",did not induce cytotoxicity
